Protein sequences, listed by entry. Tags and fused reporters are not part of them. Residues count along the entry.
UniProt P05067, 672-713 limits assumed: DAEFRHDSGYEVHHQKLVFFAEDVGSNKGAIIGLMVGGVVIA

According to EP4847495A1, “BENZOHETEROCYCLIC COMPOUND AND USE THEREOF” (dated 2026):

Key:
Aβ [1] = test: PET imaging comparison of [18F] compound 1 and [18F]Flutemetamol; settings: about 10 MBq i.v., static PET 45 min after injection, 15 min
Aβ42 oligomer = test: SPR in vitro Aβ binding affinity (Biacore 8K); settings: read-out: KD Aβ42 oligomer, CM5 chip, 25°C, 1: 1 binding model
Aβ42 monomer = Aβ42 monomer (Homo sapiens, UniProt P05067); test: SPR in vitro Aβ binding affinity (Biacore 8K); settings: read-out: KD Aβ42 monomer, CM5 chip, 25°C, 1: 1 binding model
Aβ42 fibril = test: SPR in vitro Aβ binding affinity (Biacore 8K); settings: read-out: KD Aβ42 fibril, CM5 chip, 25°C, 1: 1 binding model
Aβ plaques = test: Aβ immunofluorescence staining assay of brain sections after treatment; settings: 7 months, daily oral dose 2 mg/kg
APP/PS1 mice = test: Morris water maze test; settings: daily oral dose 2 mg/kg
activated microglia = test: Immunostaining assay of microglia (Iba1) after treatment; settings: daily oral dose 2 mg/kg; result in words
Aβ [2] = test: Autoradiography on brain sections of transgenic AD mice; settings: blocker 10 µM in incubation solution (Block / Self-Block group)

## CNc1ccc(-c2nc3ccc(O)cc3s2)cc1[18F]
Aβ [1]; APP/PS1 mice
  SUVR (reference tissue cerebellum) Cortex: 1.12
  SUVR (reference tissue cerebellum) Hippocampus: 0.97
Aβ [1]; Wild mice
  SUVR (reference tissue cerebellum) Cortex: 1.03
  SUVR (reference tissue cerebellum) Hippocampus: 0.85

## CNc1ccc(-c2cc3cc(O)ccc3o2)c(F)n1
Aβ42 oligomer
  Kd: 5.82 µM
Aβ42 monomer
  Kd: 3.33 µM
Aβ42 fibril
  Kd: 3.28 µM

## COc1cc2c(cc1OC)C(=O)C(CC1CCN(Cc3ccccc3)CC1)C2 (stereo not drawn)
Aβ plaques; 6-month-old APP/PS1 mice, AD control 200.4
  Number of Aβ plaques per unit area (mm^2) in the brain, Mean value: 200.6
Aβ plaques; result in words
  number of Aβ plaques: no significant changes
APP/PS1 mice; 6-month-old APP/PS1 mice, 7 months, AD control 41.4
  Escape latency, Mean value: 46.6 S
APP/PS1 mice; compared with solvent control group, result in words
  long-term memory ability: decreased
Activated microglia
  area proportion of the activated microglia in the brain: significant reduction

## CNc1ccc(-c2nc3ccc(O)cc3s2)cc1F
Aβ [2]
  blocking of compound 2 binding signals (autoradiography): could be blocked
Aβ42 oligomer
  Kd: 0.731 µM
Aβ42 fibril
  Kd: 2.24 µM
